Source: US11740249B2, “Recognition of cellular target binding by a bioactive agent using intracellular bioluminescence resonance energy transfer” (Promega Corporation, priority 2012, dated 2023)

The chains behind the UniProt entries cited, without tags or fusion partners. Where a name states a change or a piece, a line headed by the entry shows the natural chain unless it says otherwise.
UniProt P53779: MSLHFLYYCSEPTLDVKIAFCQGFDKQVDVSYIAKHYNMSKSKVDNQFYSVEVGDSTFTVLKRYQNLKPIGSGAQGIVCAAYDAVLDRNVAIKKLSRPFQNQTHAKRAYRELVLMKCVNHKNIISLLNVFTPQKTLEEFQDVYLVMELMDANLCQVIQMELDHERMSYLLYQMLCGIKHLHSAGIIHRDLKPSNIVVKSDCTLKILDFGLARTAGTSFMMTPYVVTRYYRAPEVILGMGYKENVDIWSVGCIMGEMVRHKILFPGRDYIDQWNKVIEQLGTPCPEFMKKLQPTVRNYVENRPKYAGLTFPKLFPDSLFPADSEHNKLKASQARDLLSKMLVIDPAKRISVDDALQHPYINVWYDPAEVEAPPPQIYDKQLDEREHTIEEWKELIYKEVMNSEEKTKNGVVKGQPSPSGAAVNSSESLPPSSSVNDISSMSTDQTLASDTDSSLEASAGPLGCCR

Biological target: JNk3 NANOLUC fusion (Homo sapiens, UniProt P53779)
Assay type: binding
Details: cell-free; serially-diluted BIRB796, BIRB-TOM tracer at 2 uM

affinity (competitive displacement of BIRB-TOM tracer): lower affinity
SMILES: Cc1ccc(-n2nc(C(C)(C)C)cc2NC(=O)Nc2ccc(OCCN3CCOCC3)c3ccccc23)cc1 [BIRB-796]
